# pIC50: −log10 of the molar value. Where two headings read alike, the source gives them in different places.
# By UniProt entry, the sequences of proteins in these tests, tags left out. Residues count along the entry.
# UniProt P08176, 99-320: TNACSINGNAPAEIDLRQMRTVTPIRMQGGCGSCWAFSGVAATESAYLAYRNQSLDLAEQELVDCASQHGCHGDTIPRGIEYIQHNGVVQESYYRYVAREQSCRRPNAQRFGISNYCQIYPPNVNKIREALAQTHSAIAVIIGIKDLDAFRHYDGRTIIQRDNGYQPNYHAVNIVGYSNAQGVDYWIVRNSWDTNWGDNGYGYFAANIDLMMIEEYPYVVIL
# Biological target: Der p 1 (Dermatophagoides pteronyssinus (European house dust mite), UniProt P08176)
# Experiment: Der p 1 enzyme activity assay (FRET fluorogenic substrate)
# Format: biochemical
# Experimental: The fluorogenic substrate used for measuring Der p 1 proteolytic activity was 2-aminobenzoylvalylalanylnorleucylseryl-(3-nitro)tyrosinyl aspartamide.
# Test compounds were dissolved in dry DMSO and maintained at 4° C. as stock solutions until being diluted for use in screening assays. Final concentration of DMSO in all enzymatic assays was 0.5% v/v.
# Reaction mixtures were assembled in a 96-well plate format (Perkin Elmer Optiplate 96F, Perkin Elmer LAS, Seer Green, Buckinghamshire, UK) using a Perkin Elmer MultiPROBE II Plus HTS EX robot with Gripper attachment. […] Dithiothreitol (DTT, 10 μL/well, 1 mM final concentration) was then added together with 10 μL of Der p 1 dissolved at 2.5 μg/mL in reaction buffer supplemented with 1 mM DTT. […] The plate was immediately transferred to a fluorescence plate reader (Perkin Elmer Fusion Alpha-FP or Perkin Elmer Envision) equipped with a temperature-controlled carrier set at 30° C. and the reaction followed by excitation/emission at 330/420 nm.
# Inhibitory activity was analysed from progress curves of reactions in the presence of a range of inhibitor concentrations.
# Initial velocity in each well was converted to fractional activity by Equation 1: Fractional activity=(Initial rate at inhibitor concentration[X]/Initial rate at inhibitor concentration zero)*100 Equation 1:
# Then, IC50 was determined by fitting the data of fractional activity and inhibitor concentration to a 4-parameter logistic curve, using Equation 2: V=Vmin+[Vmax−Vmin]/[1+(X/IC50)Hillslope] […] Biological Data—Der p 1 Enzyme Assay
# [1] = threshold stated in text, read-out: Der p 1 IC50
pIC50 [1],Structure (SMILES),pIC50 (Der p 1 IC50)
> 7.70,CC(C)[C@H](NC(=O)[C@H](C)NC(=O)[C@@H](NC(=O)c1ccccc1)C(C)(C)C)C(=O)C(=O)NCc1ccccc1 [PVA-097],–
> 7.70,CC(C)[C@H](NC(=O)[C@H](C)NC(=O)[C@@H](NC(=O)C1CC[N+](C)(C)CC1)C(C)(C)C)C(=O)C(=O)NCc1ccccc1 [PVA-154],–
–,CC(C)[C@H](NC(=O)[C@H](C)NC(=O)[C@H](Cc1ccccc1)NC(=O)c1ccccc1)C(=O)C(=O)NCC(=O)N1CC[N+](C)(C)CC1 [PVA-096],> 7.70

# Reference: patent publication US8541363B2, “Pyruvamide compounds as inhibitors of dust mite group 1 peptidase allergen and their use” (St George's Hosptial Medical School, priority 2010, dated 2013)
